In patent US11096909B2, “Compounds for use in the treatment of cancer” (University of Oulu, priority 2016, dated 2021):
“Also recorded” adds a separate entry of the source.

The chains behind the UniProt entries cited, without tags or fusion partners. Where a name states a change or a piece, a line headed by the entry shows the natural chain unless it says otherwise. Residues count along the entry.
UniProt Q9UGN5: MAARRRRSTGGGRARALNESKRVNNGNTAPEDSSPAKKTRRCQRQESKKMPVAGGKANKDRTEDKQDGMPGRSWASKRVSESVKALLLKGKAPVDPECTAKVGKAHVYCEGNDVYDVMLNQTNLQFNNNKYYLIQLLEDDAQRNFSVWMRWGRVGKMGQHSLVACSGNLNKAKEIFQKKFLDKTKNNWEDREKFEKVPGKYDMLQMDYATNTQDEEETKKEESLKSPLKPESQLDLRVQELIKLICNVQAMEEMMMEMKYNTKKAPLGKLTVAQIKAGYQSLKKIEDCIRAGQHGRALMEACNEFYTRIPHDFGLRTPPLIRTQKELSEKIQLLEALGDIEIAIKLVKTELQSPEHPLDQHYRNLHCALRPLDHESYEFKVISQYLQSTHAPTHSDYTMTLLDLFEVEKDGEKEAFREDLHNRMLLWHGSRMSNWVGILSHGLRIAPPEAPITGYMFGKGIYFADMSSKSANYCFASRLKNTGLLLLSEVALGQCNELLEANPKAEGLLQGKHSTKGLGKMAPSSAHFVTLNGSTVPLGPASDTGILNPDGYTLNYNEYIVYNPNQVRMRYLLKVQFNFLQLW
UniProt Q53GL7, 806-1025 limits assumed: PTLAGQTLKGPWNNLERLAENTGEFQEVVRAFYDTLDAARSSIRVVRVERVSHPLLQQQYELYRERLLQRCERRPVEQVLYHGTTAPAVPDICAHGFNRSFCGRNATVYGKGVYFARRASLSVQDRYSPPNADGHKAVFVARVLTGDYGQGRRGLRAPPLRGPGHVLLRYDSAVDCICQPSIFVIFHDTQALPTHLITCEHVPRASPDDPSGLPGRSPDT
UniProt P09874, whole entry: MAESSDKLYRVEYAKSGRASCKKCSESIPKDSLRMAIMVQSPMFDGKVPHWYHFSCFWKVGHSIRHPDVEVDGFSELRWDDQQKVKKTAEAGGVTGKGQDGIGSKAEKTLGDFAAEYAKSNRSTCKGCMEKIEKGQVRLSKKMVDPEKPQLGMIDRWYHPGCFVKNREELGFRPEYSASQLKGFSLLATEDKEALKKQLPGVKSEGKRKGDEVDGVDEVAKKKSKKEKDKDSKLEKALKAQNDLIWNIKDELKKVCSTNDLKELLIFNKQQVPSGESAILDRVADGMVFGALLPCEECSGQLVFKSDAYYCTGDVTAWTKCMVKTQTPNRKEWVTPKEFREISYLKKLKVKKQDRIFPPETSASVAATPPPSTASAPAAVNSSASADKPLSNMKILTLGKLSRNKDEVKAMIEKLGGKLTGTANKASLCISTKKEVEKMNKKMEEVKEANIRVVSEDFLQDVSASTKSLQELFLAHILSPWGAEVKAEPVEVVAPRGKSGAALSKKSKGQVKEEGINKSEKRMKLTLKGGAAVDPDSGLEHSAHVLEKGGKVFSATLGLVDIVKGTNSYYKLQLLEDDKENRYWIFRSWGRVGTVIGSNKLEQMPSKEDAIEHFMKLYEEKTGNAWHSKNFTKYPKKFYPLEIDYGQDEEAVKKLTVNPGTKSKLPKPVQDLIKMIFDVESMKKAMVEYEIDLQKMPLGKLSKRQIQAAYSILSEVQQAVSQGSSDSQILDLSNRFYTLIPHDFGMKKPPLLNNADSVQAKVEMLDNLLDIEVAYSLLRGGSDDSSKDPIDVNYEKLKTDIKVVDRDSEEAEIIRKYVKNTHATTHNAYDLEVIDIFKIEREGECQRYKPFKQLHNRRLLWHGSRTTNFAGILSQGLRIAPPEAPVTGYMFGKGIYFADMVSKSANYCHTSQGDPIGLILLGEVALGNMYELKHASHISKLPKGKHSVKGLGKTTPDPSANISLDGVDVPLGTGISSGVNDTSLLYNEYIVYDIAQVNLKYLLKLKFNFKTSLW
UniProt Q9H0J9: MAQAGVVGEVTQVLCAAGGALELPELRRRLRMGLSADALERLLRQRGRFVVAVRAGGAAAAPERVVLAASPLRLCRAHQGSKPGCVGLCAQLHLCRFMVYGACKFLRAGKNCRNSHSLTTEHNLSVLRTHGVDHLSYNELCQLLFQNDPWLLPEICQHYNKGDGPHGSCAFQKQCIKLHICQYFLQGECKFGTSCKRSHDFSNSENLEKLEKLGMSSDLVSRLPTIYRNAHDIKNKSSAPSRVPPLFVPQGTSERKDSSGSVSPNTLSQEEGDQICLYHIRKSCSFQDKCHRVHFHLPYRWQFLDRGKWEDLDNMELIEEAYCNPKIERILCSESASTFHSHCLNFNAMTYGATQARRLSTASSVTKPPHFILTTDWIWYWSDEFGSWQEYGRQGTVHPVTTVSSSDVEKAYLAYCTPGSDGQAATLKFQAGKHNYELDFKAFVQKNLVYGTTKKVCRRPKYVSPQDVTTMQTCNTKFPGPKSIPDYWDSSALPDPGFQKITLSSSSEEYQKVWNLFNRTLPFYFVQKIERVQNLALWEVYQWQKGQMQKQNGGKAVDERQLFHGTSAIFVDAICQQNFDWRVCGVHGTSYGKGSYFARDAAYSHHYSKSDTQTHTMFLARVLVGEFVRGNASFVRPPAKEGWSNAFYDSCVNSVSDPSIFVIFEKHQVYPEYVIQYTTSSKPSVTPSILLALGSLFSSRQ
UniProt Q7Z2W4: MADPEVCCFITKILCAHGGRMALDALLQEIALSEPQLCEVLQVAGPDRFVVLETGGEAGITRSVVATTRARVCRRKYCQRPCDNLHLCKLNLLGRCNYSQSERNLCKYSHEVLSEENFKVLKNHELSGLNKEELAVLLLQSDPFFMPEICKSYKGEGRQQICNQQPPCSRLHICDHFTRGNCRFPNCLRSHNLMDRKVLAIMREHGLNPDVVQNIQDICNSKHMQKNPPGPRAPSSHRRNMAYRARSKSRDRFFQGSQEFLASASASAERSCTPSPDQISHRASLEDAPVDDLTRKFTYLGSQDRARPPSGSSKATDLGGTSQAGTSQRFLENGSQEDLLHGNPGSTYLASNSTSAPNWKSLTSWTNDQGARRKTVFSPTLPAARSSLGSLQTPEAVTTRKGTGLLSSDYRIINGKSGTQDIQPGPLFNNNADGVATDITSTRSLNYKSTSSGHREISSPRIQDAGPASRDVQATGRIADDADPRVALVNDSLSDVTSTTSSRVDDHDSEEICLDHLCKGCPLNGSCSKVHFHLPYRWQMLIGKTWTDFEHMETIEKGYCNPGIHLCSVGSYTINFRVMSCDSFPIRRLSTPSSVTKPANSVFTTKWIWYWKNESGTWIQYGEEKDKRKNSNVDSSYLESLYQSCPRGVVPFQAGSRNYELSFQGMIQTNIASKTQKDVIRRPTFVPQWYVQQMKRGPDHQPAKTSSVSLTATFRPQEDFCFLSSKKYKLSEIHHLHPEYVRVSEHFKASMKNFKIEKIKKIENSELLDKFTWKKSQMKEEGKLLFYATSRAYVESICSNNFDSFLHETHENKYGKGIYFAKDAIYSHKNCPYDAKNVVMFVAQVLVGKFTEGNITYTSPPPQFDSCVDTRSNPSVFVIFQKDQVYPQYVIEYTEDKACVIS

Experiments:
ARTD5/PARP5a = biological target: T1, ARTD5/PARP5a (Homo sapiens, UniProt O95271); experiment: biochemical; details: read-out: ΔTm (DSF), ° C. ± STDEV
T1 sequence (O95271 1-1327): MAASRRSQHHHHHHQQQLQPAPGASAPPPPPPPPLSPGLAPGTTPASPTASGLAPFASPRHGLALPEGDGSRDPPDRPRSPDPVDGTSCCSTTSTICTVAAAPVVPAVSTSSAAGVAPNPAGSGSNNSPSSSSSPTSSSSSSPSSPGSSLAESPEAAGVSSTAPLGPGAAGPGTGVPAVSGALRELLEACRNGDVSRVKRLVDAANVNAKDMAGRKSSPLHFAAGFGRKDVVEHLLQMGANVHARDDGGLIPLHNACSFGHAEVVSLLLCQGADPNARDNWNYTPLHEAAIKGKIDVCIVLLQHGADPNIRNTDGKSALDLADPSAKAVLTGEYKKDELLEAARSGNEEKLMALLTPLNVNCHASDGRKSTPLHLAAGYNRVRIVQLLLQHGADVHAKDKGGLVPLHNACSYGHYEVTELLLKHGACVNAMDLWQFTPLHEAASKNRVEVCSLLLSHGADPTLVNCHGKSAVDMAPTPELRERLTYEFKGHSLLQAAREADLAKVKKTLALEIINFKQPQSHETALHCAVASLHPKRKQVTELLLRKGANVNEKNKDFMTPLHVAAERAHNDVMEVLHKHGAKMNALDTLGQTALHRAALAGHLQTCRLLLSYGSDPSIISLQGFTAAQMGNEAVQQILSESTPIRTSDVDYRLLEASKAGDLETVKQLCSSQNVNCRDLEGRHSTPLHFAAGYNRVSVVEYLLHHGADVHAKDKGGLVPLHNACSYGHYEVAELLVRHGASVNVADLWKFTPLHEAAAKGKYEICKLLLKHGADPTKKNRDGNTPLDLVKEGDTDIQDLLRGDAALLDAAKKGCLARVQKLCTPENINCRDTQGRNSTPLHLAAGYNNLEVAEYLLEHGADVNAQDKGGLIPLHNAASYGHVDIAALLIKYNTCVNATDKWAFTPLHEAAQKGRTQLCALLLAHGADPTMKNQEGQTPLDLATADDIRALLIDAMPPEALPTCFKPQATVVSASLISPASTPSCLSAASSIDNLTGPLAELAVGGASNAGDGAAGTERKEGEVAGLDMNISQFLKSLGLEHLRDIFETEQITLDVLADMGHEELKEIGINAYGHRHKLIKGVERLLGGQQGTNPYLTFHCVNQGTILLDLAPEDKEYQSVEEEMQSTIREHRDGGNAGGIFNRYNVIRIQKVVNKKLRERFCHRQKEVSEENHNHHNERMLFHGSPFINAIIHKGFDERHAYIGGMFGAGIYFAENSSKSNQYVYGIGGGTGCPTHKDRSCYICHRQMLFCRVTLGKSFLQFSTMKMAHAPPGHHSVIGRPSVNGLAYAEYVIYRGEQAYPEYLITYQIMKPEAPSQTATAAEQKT

[1] = system: HeLa cells overexpressing ARTD10; experiment: Colony formation assay; format: cell-based; details: 10 μM compound, ARTD10 induced with doxycycline 500 ng/ml, 10 days
Method: FIG. 3. […] The different compounds were added as indicated with a final concentration of 10 μM. These were replenished every 48 h. (b) Quantification of the colony formation results. The data represent mean values of three independent experiments performed in duplicates with standard deviations.
The cells were grown in DMEM culture media with 10% FCS, and the plates were incubated at 37° C. with 5% CO2. After 24 h of seeding, over expression of ARTD10 was induced by adding 500 ng/ml doxycycline and the media were also supplemented with the tested compounds at 10 μM concentrations. The cells were allowed to proliferate for the next 10 days, after which they were stained with methylene blue to count the number of surviving colonies. The compounds and doxycycline were replenished every 48 h while fresh media (DMEM supplemented with 10% FCS) was added every four days.

ARTD7/PARP15 = biological target: T2, ARTD7/PARP15 (Homo sapiens, UniProt Q460N3); experiment: biochemical
T2 sequence (Q460N3 1-678): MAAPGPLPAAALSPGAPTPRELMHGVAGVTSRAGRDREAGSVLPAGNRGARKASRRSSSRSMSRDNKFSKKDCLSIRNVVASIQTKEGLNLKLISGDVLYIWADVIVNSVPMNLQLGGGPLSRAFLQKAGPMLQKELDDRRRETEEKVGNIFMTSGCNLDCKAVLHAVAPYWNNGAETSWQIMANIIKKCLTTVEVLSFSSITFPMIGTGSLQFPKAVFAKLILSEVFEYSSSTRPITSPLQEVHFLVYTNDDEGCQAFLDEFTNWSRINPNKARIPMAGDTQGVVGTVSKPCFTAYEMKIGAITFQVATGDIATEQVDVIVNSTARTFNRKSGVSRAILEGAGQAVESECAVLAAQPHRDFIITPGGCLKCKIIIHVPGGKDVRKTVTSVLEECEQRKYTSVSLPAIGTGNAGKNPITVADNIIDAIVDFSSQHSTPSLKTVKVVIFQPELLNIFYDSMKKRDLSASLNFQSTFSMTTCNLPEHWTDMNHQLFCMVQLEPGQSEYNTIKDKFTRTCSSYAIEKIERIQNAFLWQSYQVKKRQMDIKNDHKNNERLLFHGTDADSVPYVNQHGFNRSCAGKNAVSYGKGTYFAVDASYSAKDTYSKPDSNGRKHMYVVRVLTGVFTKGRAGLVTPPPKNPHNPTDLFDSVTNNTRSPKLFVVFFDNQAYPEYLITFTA

ARTD2/PARP2 = ARTD2/PARP2 (Homo sapiens, UniProt Q9UGN5); experiment: biochemical
ARTD10/PARP10 = ARTD10/PARP10 (Homo sapiens, UniProt Q53GL7); details: 100 μM OUL35
ARTD1/PARP1 = ARTD1/PARP1 (Homo sapiens, UniProt P09874); experiment: biochemical
ARTD12/PARP12 = ARTD12/PARP12 (Homo sapiens, UniProt Q9H0J9); experiment: biochemical; details: read-out: ΔTm (DSF), ° C. ± STDEV
ARTD13/PARP13 = ARTD13/PARP13 (Homo sapiens, UniProt Q7Z2W4); experiment: biochemical; details: read-out: ΔTm (DSF), ° C. ± STDEV
ARTD6/PARP5b = biological target: T3, ARTD6/PARP5b (Homo sapiens, UniProt Q9H2K2); experiment: biochemical; details: read-out: ΔTm (DSF), ° C. ± STDEV
T3 sequence (Q9H2K2 1-1166): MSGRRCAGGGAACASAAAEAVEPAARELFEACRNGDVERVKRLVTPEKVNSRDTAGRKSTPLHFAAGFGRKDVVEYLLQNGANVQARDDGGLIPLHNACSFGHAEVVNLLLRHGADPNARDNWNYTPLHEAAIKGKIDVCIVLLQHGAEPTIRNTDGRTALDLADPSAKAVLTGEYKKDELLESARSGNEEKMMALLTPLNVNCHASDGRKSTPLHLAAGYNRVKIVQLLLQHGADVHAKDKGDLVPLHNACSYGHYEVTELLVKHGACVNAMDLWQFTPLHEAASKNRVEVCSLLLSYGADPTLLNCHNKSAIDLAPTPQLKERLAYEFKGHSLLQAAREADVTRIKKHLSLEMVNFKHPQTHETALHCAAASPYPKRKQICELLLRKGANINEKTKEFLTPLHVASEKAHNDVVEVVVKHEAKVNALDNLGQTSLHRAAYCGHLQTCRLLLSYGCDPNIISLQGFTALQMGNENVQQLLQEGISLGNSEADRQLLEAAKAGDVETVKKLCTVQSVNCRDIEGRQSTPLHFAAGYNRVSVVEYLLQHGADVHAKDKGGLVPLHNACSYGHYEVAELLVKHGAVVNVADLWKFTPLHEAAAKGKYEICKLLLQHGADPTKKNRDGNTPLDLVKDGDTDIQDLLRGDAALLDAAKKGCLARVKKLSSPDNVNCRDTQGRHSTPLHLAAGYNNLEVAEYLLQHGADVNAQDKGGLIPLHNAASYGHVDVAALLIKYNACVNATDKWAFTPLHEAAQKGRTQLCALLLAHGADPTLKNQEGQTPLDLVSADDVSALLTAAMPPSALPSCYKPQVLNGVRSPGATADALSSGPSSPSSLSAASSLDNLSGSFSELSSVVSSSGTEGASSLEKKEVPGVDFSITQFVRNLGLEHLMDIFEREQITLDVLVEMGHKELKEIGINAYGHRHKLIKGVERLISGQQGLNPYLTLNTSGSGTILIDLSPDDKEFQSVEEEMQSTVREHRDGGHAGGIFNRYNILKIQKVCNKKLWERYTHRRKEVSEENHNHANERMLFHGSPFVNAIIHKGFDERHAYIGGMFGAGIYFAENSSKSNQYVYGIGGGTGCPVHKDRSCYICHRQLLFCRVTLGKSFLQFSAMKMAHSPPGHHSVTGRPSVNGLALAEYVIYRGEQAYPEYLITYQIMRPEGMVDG

Structure (SMILES): NC(=O)c1ccc(Oc2ccc(C(N)=O)cc2)cc1 [OUL35, 4,4′-oxydibenzamide]
- ΔTm at 100 µM (ARTD5/PARP5a): 0.45 ± 0.01 °C
- rescue of cell proliferation / colony formation [1]: complete rescue of cell proliferation; also recorded: efficiently rescued cells overexpressing ARTD10
- inhibition at 20 µM (ARTD7/PARP15): < 50%
- IC50 (ARTD2/PARP2): > 100 µM
- stabilization of catalytic domain (DSF) (ARTD10/PARP10): stabilized the catalytic domains
- IC50 (ARTD1/PARP1): > 100 µM
- ΔTm at 100 µM (ARTD12/PARP12): 0.87 ± 0.42 °C
- ΔTm at 100 µM (ARTD13/PARP13): -0.21 ± 0.04 °C
- ΔTm at 100 µM (ARTD6/PARP5b): 0.15 ± 0.12 °C
